Key:
Assay in all cases: Full kinase panel inhibition by Example compounds 8 and 51 at 1 μM (Tables 11 to 14; kinase named in each table line)
full kinase panel [1] = target: full kinase panel (Homo sapiens, UniProt O43318); details: TAK1
full kinase panel [2] = target: full kinase panel (Homo sapiens, UniProt O60674); details: JAK2
full kinase panel [3] = target: full kinase panel (Homo sapiens, UniProt O95819); details: HGK/MAP4K4
full kinase panel [4] = target: full kinase panel (Homo sapiens, UniProt P00519); details: ABL1
full kinase panel [5] = target: full kinase panel (Homo sapiens, UniProt P04626); details: ERBB2/HER2
full kinase panel [6] = target: full kinase panel (Homo sapiens, UniProt P04629); details: TRKA
full kinase panel [7] = target: full kinase panel (Homo sapiens, UniProt P06241); details: FYN
full kinase panel [8] = target: full kinase panel (Homo sapiens, UniProt P07333); details: FMS
full kinase panel [9] = target: full kinase panel (Homo sapiens, UniProt P09769); details: FGR
full kinase panel [10] = target: full kinase panel (Homo sapiens, UniProt P10721); details: C-KIT
full kinase panel [11] = target: full kinase panel (Homo sapiens, UniProt P11362); details: FGFR1
full kinase panel [12] = target: full kinase panel (Homo sapiens, UniProt P17948); details: FLT1/VEGFR1
full kinase panel [13] = target: full kinase panel (Homo sapiens, UniProt P21709); details: EPHA1
full kinase panel [14] = target: full kinase panel (Homo sapiens, UniProt P29317); details: EPHA2
full kinase panel [15] = target: full kinase panel (Homo sapiens, UniProt P29322); details: EPHA8
full kinase panel [16] = target: full kinase panel (Homo sapiens, UniProt P29597); details: TYK2
full kinase panel [17] = target: full kinase panel (Homo sapiens, UniProt P35916); details: FLT4/VEGFR3
full kinase panel [18] = target: full kinase panel (Homo sapiens, UniProt P36888); details: FLT3
full kinase panel [19] = target: full kinase panel (Homo sapiens, UniProt P42685); details: FRK/PTK5
full kinase panel [20] = target: full kinase panel (Homo sapiens, UniProt P51451); details: BLK
full kinase panel [21] = target: full kinase panel (Homo sapiens, UniProt P51957); details: NEK4
full kinase panel [22] = target: full kinase panel (Homo sapiens, UniProt P53667); details: LIMK1
full kinase panel [23] = target: full kinase panel (Homo sapiens, UniProt P53671); details: LIMK2
full kinase panel [24] = target: full kinase panel (Homo sapiens, UniProt P54760); details: EPHB4
full kinase panel [25] = target: full kinase panel (Homo sapiens, UniProt P54764); details: EPHA4
full kinase panel [26] = target: full kinase panel (Homo sapiens, UniProt Q02763); details: TIE2/TEK
full kinase panel [27] = target: full kinase panel (Homo sapiens, UniProt Q05397); details: FAK/PTK2
full kinase panel [28] = target: full kinase panel (Homo sapiens, UniProt Q06187); details: BTK
full kinase panel [29] = target: full kinase panel (Homo sapiens, UniProt Q13470); details: TNK1
full kinase panel [30] = target: full kinase panel (Homo sapiens, UniProt Q13882); details: BRK
full kinase panel [31] = target: full kinase panel (Homo sapiens, UniProt Q15303); details: ERBB4/HER4
full kinase panel [32] = target: full kinase panel (Homo sapiens, UniProt Q15375); details: EPHA7
full kinase panel [33] = target: full kinase panel (Homo sapiens, UniProt Q15569); details: TESK1
full kinase panel [34] = target: full kinase panel (Homo sapiens, UniProt Q16620); details: TRKB
full kinase panel [35] = target: full kinase panel (Homo sapiens, UniProt Q7L7X3); details: TAOK1
full kinase panel [36] = target: full kinase panel (Homo sapiens, UniProt Q8N4C8); details: MINK/MINK1
full kinase panel [37] = target: full kinase panel (Homo sapiens, UniProt Q9H1R3); details: MLCK2/MYLK2
full kinase panel [38] = target: full kinase panel (Homo sapiens, UniProt Q9UF33); details: EPHA6
full kinase panel [39] = target: full kinase panel (Homo sapiens, UniProt Q9Y2U5); details: MEKK2
full kinase panel [40] = target: full kinase panel (Homo sapiens, UniProt Q9Y4K4); details: KHS/MAP4K5
full kinase panel [41] = details: LYN B

By UniProt entry, the sequences of proteins in these tests, tags left out. Residues count along the entry.
UniProt O60674, whole entry: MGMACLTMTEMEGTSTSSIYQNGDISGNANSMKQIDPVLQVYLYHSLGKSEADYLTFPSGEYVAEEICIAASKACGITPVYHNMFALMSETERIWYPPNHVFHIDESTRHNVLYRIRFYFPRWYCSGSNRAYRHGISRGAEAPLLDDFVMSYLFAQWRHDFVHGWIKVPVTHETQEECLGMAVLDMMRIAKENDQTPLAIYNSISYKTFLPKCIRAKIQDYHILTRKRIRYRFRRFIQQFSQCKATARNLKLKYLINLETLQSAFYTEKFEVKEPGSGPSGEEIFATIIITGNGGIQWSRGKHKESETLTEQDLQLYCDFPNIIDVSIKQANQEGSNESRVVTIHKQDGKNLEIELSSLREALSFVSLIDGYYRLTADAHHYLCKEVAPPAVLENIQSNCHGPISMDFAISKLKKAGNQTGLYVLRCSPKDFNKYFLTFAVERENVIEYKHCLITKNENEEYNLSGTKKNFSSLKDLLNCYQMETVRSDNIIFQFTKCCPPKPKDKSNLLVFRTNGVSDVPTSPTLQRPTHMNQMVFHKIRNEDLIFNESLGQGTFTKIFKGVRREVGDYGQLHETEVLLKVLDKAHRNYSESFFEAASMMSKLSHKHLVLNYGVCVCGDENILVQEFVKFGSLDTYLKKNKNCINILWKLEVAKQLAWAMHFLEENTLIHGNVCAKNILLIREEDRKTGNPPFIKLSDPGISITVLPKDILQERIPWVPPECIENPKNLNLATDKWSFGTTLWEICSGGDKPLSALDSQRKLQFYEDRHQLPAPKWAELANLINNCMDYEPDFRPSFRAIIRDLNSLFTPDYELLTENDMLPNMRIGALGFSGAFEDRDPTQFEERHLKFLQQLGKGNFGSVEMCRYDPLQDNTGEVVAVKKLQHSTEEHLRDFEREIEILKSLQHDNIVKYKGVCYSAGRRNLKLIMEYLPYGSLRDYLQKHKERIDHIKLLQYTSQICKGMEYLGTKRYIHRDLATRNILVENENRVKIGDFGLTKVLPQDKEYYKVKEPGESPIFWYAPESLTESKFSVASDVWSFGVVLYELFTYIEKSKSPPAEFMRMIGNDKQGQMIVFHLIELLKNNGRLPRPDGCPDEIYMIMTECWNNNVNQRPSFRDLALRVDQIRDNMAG
UniProt P04626, 23-1255 limits assumed: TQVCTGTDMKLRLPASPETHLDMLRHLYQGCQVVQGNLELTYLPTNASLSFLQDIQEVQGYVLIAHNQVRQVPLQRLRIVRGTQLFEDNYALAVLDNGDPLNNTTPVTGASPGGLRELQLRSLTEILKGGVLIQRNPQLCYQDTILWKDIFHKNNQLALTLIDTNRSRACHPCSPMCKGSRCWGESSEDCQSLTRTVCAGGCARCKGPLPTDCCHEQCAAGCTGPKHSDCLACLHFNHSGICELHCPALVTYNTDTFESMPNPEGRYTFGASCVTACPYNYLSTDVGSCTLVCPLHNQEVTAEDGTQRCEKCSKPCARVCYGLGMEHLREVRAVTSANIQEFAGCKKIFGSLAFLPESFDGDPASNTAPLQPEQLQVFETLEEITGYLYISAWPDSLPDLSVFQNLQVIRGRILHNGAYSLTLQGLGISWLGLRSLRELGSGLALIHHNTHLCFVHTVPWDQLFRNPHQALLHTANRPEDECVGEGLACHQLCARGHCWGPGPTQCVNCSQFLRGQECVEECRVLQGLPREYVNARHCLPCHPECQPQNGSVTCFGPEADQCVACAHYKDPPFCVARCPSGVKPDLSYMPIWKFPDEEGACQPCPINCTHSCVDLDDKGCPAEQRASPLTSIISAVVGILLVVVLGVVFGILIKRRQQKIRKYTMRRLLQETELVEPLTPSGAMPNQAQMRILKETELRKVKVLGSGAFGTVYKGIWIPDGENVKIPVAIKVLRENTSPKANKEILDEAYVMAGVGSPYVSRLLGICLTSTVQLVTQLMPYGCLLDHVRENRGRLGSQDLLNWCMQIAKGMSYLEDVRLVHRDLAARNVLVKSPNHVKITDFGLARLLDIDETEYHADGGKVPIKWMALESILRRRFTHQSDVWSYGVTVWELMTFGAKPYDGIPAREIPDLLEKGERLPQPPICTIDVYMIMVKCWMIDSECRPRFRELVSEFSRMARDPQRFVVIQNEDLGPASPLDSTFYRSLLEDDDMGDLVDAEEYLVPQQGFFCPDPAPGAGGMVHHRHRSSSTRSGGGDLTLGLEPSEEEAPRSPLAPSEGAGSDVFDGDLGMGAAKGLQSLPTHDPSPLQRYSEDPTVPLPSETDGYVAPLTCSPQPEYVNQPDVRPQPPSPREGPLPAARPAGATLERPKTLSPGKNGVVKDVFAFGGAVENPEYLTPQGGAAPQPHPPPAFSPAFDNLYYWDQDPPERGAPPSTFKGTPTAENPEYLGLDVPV
UniProt P11362, 22-822 limits assumed: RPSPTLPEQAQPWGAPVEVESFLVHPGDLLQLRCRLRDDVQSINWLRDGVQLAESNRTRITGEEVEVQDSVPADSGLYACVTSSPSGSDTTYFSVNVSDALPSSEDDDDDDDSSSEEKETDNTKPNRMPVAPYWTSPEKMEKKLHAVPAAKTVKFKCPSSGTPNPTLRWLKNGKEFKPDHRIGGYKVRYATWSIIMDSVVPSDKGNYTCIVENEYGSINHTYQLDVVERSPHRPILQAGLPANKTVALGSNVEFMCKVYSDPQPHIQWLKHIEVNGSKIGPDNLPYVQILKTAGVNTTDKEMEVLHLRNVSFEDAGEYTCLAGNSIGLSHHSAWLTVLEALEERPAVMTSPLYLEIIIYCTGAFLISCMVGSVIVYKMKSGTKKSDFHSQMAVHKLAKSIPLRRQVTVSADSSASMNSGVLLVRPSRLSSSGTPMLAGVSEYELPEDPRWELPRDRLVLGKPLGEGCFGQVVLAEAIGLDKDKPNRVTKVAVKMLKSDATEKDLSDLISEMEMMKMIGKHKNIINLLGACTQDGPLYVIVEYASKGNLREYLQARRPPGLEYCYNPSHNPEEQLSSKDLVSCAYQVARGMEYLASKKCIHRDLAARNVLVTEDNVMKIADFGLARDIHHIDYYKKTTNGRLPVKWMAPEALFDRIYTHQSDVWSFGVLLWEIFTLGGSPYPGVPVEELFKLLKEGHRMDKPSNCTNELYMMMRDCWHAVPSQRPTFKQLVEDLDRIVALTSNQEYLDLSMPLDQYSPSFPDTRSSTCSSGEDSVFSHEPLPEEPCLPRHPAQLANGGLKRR
UniProt P42685, whole entry: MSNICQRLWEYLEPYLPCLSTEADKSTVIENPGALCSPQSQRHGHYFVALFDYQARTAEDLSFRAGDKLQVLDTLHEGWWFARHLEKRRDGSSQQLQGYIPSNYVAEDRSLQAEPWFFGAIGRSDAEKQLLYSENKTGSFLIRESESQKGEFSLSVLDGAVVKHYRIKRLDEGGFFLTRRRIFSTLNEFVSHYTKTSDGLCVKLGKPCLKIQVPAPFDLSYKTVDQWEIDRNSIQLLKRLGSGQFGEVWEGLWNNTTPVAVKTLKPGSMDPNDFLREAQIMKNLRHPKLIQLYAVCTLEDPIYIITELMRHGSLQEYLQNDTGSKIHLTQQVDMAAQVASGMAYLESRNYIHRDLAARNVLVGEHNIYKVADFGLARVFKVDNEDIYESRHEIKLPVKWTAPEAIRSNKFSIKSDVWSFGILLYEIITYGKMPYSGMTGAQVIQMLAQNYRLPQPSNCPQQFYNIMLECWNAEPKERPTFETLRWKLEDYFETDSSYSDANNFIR
UniProt P51957, whole entry: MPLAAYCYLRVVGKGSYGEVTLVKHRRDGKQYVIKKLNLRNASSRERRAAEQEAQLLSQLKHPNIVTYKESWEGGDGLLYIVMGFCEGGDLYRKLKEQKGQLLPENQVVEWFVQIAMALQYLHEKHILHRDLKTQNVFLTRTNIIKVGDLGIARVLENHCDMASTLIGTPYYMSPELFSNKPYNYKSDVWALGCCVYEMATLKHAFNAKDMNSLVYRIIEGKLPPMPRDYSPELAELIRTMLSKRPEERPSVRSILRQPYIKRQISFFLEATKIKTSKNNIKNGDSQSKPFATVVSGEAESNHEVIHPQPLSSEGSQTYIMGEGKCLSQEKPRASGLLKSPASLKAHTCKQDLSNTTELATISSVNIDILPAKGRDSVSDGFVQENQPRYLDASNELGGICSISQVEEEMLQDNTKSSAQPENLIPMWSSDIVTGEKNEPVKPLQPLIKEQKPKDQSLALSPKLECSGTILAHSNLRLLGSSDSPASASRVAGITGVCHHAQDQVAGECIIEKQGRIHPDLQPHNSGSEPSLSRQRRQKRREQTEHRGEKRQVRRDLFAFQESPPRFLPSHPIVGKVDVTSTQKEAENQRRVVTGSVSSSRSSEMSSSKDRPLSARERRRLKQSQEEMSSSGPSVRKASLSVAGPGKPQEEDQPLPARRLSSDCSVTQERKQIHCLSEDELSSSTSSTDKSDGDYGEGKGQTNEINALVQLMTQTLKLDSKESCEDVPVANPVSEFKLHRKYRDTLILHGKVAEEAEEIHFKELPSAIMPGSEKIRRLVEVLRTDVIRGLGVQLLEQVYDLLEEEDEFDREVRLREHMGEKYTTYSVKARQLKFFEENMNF
UniProt P53667, whole entry: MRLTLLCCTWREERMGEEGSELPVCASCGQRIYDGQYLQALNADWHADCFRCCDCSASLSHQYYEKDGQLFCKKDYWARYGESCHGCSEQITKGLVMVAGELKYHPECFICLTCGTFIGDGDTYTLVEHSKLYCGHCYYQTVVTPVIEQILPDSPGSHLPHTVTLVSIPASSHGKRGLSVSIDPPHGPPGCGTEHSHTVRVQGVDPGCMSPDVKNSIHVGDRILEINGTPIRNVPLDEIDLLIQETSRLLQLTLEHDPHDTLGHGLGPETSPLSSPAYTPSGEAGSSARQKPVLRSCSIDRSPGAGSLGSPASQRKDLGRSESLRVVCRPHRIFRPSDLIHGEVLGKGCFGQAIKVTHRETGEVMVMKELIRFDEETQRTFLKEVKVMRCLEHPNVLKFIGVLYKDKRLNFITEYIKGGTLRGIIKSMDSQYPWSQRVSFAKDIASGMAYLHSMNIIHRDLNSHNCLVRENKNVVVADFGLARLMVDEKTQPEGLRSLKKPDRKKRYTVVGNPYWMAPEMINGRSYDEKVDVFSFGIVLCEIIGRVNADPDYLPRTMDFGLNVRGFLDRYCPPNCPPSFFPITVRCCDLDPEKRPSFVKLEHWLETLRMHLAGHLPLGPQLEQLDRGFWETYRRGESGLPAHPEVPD
UniProt P53671, whole entry: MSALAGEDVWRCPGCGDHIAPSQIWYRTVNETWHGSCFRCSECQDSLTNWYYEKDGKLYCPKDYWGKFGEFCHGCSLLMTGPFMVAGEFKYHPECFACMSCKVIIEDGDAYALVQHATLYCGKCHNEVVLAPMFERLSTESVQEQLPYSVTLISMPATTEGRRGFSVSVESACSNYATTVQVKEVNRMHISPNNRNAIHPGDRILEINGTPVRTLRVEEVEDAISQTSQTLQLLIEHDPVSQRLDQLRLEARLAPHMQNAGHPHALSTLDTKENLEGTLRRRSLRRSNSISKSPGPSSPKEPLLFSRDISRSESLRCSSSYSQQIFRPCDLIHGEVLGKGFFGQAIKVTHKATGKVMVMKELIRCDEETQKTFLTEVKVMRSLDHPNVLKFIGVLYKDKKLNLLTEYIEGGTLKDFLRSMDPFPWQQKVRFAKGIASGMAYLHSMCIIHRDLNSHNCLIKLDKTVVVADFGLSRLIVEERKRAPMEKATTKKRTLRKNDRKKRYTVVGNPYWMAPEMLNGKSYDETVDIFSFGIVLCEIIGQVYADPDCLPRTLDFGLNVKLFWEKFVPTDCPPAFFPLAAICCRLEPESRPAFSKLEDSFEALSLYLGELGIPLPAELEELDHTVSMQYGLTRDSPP
UniProt Q9Y2U5, whole entry: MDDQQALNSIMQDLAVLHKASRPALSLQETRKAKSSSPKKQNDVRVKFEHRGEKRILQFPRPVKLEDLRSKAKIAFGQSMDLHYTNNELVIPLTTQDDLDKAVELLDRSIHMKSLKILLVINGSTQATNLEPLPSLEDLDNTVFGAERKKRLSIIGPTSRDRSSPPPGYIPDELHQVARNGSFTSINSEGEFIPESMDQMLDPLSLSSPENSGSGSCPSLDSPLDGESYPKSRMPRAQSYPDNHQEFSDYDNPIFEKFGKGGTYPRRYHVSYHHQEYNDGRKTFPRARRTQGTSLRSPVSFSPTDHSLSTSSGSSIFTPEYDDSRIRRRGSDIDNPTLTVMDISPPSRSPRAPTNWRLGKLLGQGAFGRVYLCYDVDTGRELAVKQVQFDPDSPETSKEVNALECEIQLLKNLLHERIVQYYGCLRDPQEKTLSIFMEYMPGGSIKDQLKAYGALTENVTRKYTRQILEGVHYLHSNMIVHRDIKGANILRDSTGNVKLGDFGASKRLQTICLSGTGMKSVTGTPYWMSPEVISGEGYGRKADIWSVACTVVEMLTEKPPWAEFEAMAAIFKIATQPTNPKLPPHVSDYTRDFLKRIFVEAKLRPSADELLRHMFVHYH

Cc1cn(-c2cc(C(=O)Nc3ccc(C)c(N4Cc5cnc(NC6CC6)nc5C5(CC5)C4=O)c3)cc(C(F)(F)F)c2)cn1
kinase inhibition (residual enzyme activity) (full kinase panel [1]): ◯ (residual enzyme activity values were 40% or less, i.e., inhibited by 60% or more)
kinase inhibition (residual enzyme activity) (full kinase panel [2]): ◯ (residual enzyme activity values were 40% or less, i.e., inhibited by 60% or more)
kinase inhibition (residual enzyme activity) (full kinase panel [3]): ◯ (residual enzyme activity values were 40% or less, i.e., inhibited by 60% or more)
kinase inhibition (residual enzyme activity) (full kinase panel [4]): ◯ (residual enzyme activity values were 40% or less, i.e., inhibited by 60% or more)
kinase inhibition (residual enzyme activity) (full kinase panel [5]): ◯ (residual enzyme activity values were 40% or less, i.e., inhibited by 60% or more)
kinase inhibition (residual enzyme activity) (full kinase panel [6]): ◯ (residual enzyme activity values were 40% or less, i.e., inhibited by 60% or more)
kinase inhibition (residual enzyme activity) (full kinase panel [7]): ◯ (residual enzyme activity values were 40% or less, i.e., inhibited by 60% or more)
kinase inhibition (residual enzyme activity) (full kinase panel [8]): ◯ (residual enzyme activity values were 40% or less, i.e., inhibited by 60% or more)
kinase inhibition (residual enzyme activity) (full kinase panel [9]): ◯ (residual enzyme activity values were 40% or less, i.e., inhibited by 60% or more)
kinase inhibition (residual enzyme activity) (full kinase panel [10]): ◯ (residual enzyme activity values were 40% or less, i.e., inhibited by 60% or more)
kinase inhibition (residual enzyme activity) (full kinase panel [11]): ◯ (residual enzyme activity values were 40% or less, i.e., inhibited by 60% or more)
kinase inhibition (residual enzyme activity) (full kinase panel [12]): ◯ (residual enzyme activity values were 40% or less, i.e., inhibited by 60% or more)
kinase inhibition (residual enzyme activity) (full kinase panel [13]): ◯ (residual enzyme activity values were 40% or less, i.e., inhibited by 60% or more)
kinase inhibition (residual enzyme activity) (full kinase panel [14]): ◯ (residual enzyme activity values were 40% or less, i.e., inhibited by 60% or more)
kinase inhibition (residual enzyme activity) (full kinase panel [15]): ◯ (residual enzyme activity values were 40% or less, i.e., inhibited by 60% or more)
kinase inhibition (residual enzyme activity) (full kinase panel [16]): ◯ (residual enzyme activity values were 40% or less, i.e., inhibited by 60% or more)
kinase inhibition (residual enzyme activity) (full kinase panel [17]): ◯ (residual enzyme activity values were 40% or less, i.e., inhibited by 60% or more)
kinase inhibition (residual enzyme activity) (full kinase panel [18]): ◯ (residual enzyme activity values were 40% or less, i.e., inhibited by 60% or more)
kinase inhibition (residual enzyme activity) (full kinase panel [19]): ◯ (residual enzyme activity values were 40% or less, i.e., inhibited by 60% or more)
kinase inhibition (residual enzyme activity) (full kinase panel [20]): ◯ (residual enzyme activity values were 40% or less, i.e., inhibited by 60% or more)
kinase inhibition (residual enzyme activity) (full kinase panel [21]): ◯ (residual enzyme activity values were 40% or less, i.e., inhibited by 60% or more)
kinase inhibition (residual enzyme activity) (full kinase panel [22]): ◯ (residual enzyme activity values were 40% or less, i.e., inhibited by 60% or more)
kinase inhibition (residual enzyme activity) (full kinase panel [23]): ◯ (residual enzyme activity values were 40% or less, i.e., inhibited by 60% or more)
kinase inhibition (residual enzyme activity) (full kinase panel [24]): ◯ (residual enzyme activity values were 40% or less, i.e., inhibited by 60% or more)
kinase inhibition (residual enzyme activity) (full kinase panel [25]): ◯ (residual enzyme activity values were 40% or less, i.e., inhibited by 60% or more)
kinase inhibition (residual enzyme activity) (full kinase panel [26]): ◯ (residual enzyme activity values were 40% or less, i.e., inhibited by 60% or more)
kinase inhibition (residual enzyme activity) (full kinase panel [27]): ◯ (residual enzyme activity values were 40% or less, i.e., inhibited by 60% or more)
kinase inhibition (residual enzyme activity) (full kinase panel [28]): ◯ (residual enzyme activity values were 40% or less, i.e., inhibited by 60% or more)
kinase inhibition (residual enzyme activity) (full kinase panel [29]): ◯ (residual enzyme activity values were 40% or less, i.e., inhibited by 60% or more)
kinase inhibition (residual enzyme activity) (full kinase panel [30]): ◯ (residual enzyme activity values were 40% or less, i.e., inhibited by 60% or more)
kinase inhibition (residual enzyme activity) (full kinase panel [31]): ◯ (residual enzyme activity values were 40% or less, i.e., inhibited by 60% or more)
kinase inhibition (residual enzyme activity) (full kinase panel [32]): ◯ (residual enzyme activity values were 40% or less, i.e., inhibited by 60% or more)
kinase inhibition (residual enzyme activity) (full kinase panel [33]): ◯ (residual enzyme activity values were 40% or less, i.e., inhibited by 60% or more)
kinase inhibition (residual enzyme activity) (full kinase panel [34]): ◯ (residual enzyme activity values were 40% or less, i.e., inhibited by 60% or more)
kinase inhibition (residual enzyme activity) (full kinase panel [35]): ◯ (residual enzyme activity values were 40% or less, i.e., inhibited by 60% or more)
kinase inhibition (residual enzyme activity) (full kinase panel [36]): ◯ (residual enzyme activity values were 40% or less, i.e., inhibited by 60% or more)
kinase inhibition (residual enzyme activity) (full kinase panel [37]): ◯ (residual enzyme activity values were 40% or less, i.e., inhibited by 60% or more)
kinase inhibition (residual enzyme activity) (full kinase panel [38]): ◯ (residual enzyme activity values were 40% or less, i.e., inhibited by 60% or more)
kinase inhibition (residual enzyme activity) (full kinase panel [39]): ◯ (residual enzyme activity values were 40% or less, i.e., inhibited by 60% or more)
kinase inhibition (residual enzyme activity) (full kinase panel [40]): ◯ (residual enzyme activity values were 40% or less, i.e., inhibited by 60% or more)
kinase inhibition (residual enzyme activity) (full kinase panel [41]): ◯ (residual enzyme activity values were 40% or less, i.e., inhibited by 60% or more)
